Article PMC5843355, “Evaluation of the Trypanosoma brucei 6-oxopurine salvage pathway as a potential target for drug discovery” (PLoS Neglected Tropical Diseases, 2018)

Test system: T. brucei BF427 cell line
Assay: Alamar Blue assay, sensitivity of bloodstream form T. brucei to ANP prodrugs
Type: cell-based, Trypanosoma brucei
Conditions: average CC50 for A549 divided by average EC50 for T. brucei BF427

## Nc1nc2c(ncn2CCN(CCN(CCP(=O)(O)O)CCP(=O)(O)O)CCP(=O)(O)O)c(=O)[nH]1 [compound 4]
  Estimated selectivity index (SI): very favourable
